Entries after “also recorded” stand apart in the source; their conditions may differ.
System: SHH signaling activity in SHH-organoids
Assay: Drug treatment of SHH-organoids, positional domains analysed at day 20
Assay type: cell-based, human
Conditions: day 20 SHH-organoids, doxycycline 400 ng/ml, drug day 0-10; lovastatin 5 μM, AY9944 1.25 μM, cyclopamine 1 μM

CC1=C2C[C@H]3[C@@H](CC=C4C[C@@H](O)CC[C@@]43C)[C@@H]2CC[C@]12O[C@@H]1C[C@H](C)CN[C@H]1[C@H]2C [cyclopamine]
SHH signaling activity (efficacy and range): inhibition of SHH signaling activity; also recorded: near complete inhibition of SHH activity

Source: patent publication US12404489B2, “Establishing topographic organization in three-dimensional tissue culture” (MEMORIAL SLOAN-KETTERING CANCER CENTER, priority 2017, dated 2025)
